≈ marks a conversion by molar mass, not a printed value.
Test system: Mtb H37Rv
Assay: microbe, parasite or virus in culture
Details: Mycobacterium tuberculosis

Work on `CS(=O)(=O)NC(=O)NCc1cn(-c2ccc(C(F)(F)F)nc2)nc1-c1ccncc1` [Compound 42, N-(((3-(pyridin-4-yl)-1-(6-(trifluoromethyl)pyridin-3-yl)-1H-pyrazol-4-yl)methyl)carbamoyl)methanesulfonamide] yielded an MIC of 1.2 µM (≈ 0.528 µg/mL).
